The text below walks through data of EP1994938A1, “New lipoglycodepsipeptide compositions” (priority 2007, dated 2008).

For series [1] the following is noted: rats, 30 mg/kg i.v. once daily for three days.
The conditions of series [2]: iv; cited from earlier work.

Consider ramoplanin, for which the hemolysis in vivo result in series [1] (formulated in 0.9% NaCl) is on record as “detected”. Moreover, the “short term in vivo toxicity effect” value in series [1] (formulated with cyclodextrin (SBE-β-CD:ramoplanin 10 : 1), in comparison to 0.9% NaCl formulation) is listed as “significantly reduced”. In addition, the “short term in vivo toxic effects” value in series [2] was “progressive necrotization at the site of injection and hemolysis as revealed by urine discoloration”.
